# According to PubChem BioAssay AID504616 (Sanford-Burnham Center for Chemical Genomics, 2011):
# The list shows a part of the results, in another mix than the full data. Active and inactive are the calls of the source.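 Rule for the calls: active = mean activity change at or below -40% when tested at 20 µM; inactive = the rest.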
# Assay: Rh110 fluorescence interference by putative Apaf-1 activators, confirmation, artefact control for Apaf-1 activator project, biochemical, 20 µM (AID 504616)
# Conditions: quenched caspase reaction, Ex480/Em540, at 20 µM
smiles,measurement,value
O=[As](O)(c1ccc(O)cc1)c1ccccc1O,fluorescence interference (activity change),inactive: 7.63%
